Assay results: ChEMBL document CHEMBL5634110, “Applications of oxetanes in drug discovery and medicinal chemistry” (Eur J Med Chem, 2023)

By UniProt entry, the sequences of proteins in these tests, tags left out. Where a name states a change or a piece, a line headed by the entry shows the natural chain unless it says otherwise.
UniProt Q06187: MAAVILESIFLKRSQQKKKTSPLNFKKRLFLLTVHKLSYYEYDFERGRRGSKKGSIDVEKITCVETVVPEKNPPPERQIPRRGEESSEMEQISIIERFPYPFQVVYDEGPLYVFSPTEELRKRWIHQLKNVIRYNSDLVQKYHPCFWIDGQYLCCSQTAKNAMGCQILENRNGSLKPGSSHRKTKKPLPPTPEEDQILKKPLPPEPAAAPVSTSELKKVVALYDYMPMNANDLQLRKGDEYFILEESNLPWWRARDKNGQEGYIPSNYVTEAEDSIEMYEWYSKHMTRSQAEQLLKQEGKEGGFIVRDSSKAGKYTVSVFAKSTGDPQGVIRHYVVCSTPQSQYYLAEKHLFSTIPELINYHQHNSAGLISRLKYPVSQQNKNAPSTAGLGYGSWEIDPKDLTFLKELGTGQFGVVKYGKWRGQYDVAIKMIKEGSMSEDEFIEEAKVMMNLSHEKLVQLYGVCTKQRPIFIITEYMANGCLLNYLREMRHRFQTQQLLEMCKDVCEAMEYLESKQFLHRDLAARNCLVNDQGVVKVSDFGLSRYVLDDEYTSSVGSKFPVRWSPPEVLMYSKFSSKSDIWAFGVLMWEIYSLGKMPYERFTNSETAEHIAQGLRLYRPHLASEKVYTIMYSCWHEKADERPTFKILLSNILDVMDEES

Target: Tyrosine-protein kinase BTK (Homo sapiens, UniProt Q06187)
Experiment: Inhibition of BTK (unknown origin)

IC50: 16 nM
SMILES: CNC(C)(C)/C=C(\C#N)C(=O)N1CCC[C@H]1Cn1nc(-c2ccc(Oc3ccccc3)cc2F)c2c(N)ncnc21
